Earlier results on 1 compound are cited in patent publication US20040143023A1, “Materials and methods for synthesizing stilbenes” (priority 2000, published 2004).

In the data set the test system is tubulin.

`COc1ccc(/C=C\c2cc(OC)c(OC)c(OC)c2)cc1O` [cis-combretastatin A-4, Z-1-(3′-Hydroxy-4′-methoxyphenyl)-2-(3″,4″,5″-trimethoxyphenyl)ethene]: the binding to tubulin result is on record as “binding strongly”.
